{
  "sequences": {"note": "Amino acid sequences for entries named in this document (tags omitted). Chains listed by the source or under a name are the forms on record and can include a tag or linker.", "UniProt O00329, with tags, fused parts or gaps limits assumed": "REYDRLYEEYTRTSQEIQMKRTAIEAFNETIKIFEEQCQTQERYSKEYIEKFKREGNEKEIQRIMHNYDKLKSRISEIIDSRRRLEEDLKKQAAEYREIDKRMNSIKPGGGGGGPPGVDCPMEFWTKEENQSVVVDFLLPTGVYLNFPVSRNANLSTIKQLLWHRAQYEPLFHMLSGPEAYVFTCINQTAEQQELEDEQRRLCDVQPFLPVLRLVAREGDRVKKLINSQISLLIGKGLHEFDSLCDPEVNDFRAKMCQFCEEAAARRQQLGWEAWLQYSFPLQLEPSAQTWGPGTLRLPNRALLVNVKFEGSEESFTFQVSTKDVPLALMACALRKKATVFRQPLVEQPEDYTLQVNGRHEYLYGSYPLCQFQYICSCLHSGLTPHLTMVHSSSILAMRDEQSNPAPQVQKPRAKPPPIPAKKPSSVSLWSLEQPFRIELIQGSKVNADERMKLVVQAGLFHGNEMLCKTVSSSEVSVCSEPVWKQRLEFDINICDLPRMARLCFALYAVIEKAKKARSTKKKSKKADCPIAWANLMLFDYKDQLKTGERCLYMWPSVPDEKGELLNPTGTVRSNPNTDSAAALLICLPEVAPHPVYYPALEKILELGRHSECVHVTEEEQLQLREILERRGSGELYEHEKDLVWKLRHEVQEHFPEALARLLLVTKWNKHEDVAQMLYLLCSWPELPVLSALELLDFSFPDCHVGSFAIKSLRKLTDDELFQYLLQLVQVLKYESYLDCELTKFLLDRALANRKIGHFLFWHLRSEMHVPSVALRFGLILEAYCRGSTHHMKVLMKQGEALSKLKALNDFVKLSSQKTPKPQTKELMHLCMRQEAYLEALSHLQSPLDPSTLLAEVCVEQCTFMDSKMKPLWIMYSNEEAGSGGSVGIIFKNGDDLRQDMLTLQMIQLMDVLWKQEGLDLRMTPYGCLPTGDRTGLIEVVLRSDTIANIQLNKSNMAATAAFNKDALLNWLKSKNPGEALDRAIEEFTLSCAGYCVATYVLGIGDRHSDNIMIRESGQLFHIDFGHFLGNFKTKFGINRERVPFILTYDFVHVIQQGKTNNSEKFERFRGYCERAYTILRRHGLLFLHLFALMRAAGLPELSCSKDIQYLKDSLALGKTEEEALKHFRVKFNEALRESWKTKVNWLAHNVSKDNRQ"},
  "source": "patent US9949979B2",
  "about": "“Use of inhibitors of the activity or function of PI3K” (NOVARTIS AG, priority 2011, dated 2018)",
  "biological_target": "PI3K delta (Homo sapiens, UniProt O00329)",
  "assay": "Enzymatic PI3K delta isoform inhibition (lipid kinase activity, Kinase-Glo)",
  "format": "biochemical",
  "set-up": "for the full-length p110-d subunit are generated and fused by overlapping PCR; His tag (C); made in house; host or cells: baculovirus; Tn5 (Trichoplusia ni) or TiniPro insect cells",
  "details": "Enzymatic Assay",
  "description": "1 Determination of Enzymatic PI3K Alpha and PI3K Delta Isoform Inhibition\n1.1 Test of Lipid Kinase Activity\nThe kinase reaction is performed in a final volume of 50 μl per well of a half area COSTAR, 96 well plate. The final concentrations of ATP and phosphatidyl inositol in the assay are 5 μM and 6 μg/mL, respectively. The reaction is started by the addition of PI3 kinase, e.g. PI3 kinase δ.\np110δ. The components of the assay are added per well as follows: • 10 μl test compound in 5% DMSO per well in […]. • Total activity is determined by addition 10 μl of 5% vol/vol DMSO in the first 4 wells of column 1 and the last 4 wells of column 12. • The background is determined by addition of 10 μM control compound to the last 4 wells of column 1 and the first 4 wells of column 12. • 2 mL ‘Assay mix’ are prepared per plate: • 1.912 mL of HEPES assay buffer • 8.33 μl of 3 mM stock of ATP giving a final concentration of 5 μM per well • 1 μl of [^33P]ATP on the activity date giving 0.05 μCi per well • 30 μl of 1 mg/mL PI stock giving a final concentration of 6 μg/mL per well • 5 μl of 1 M stock MgCl2 giving a final concentration of 1 mM per well • 20 μl of the assay mix are added per well. • 2 mL ‘Enzyme mix’ are prepared per plate (x* μl PI3 kinase p110β in 2 mL of kinase buffer). […]\nIC50 is determined by a four parameter curve fitting routine that comes along with “excel fit”. […]",
  "data": [
    {"smiles": "CCC(=O)N1CC[C@H](Nc2ncnc3c2CN(c2cnc(OC)c(C(F)(F)F)c2)CC3)C1", "note": "[Example 67, 1-{(S)-3-[6-(6-Methoxy-5-trifluoromethyl-pyridin-3-yl)-5,6,7,8-tetrahydro-pyrido[4,3-d]pyrimidin-4-ylamino]-pyrrolidin-1-yl}-propan-1-one]", "values": [
      {"measurement": "IC50", "result": 23, "unit": "nM"}
    ]}
  ]
}
